Reference: patent publication US9212182B2, “Bicyclic sulfonamide compounds as sodium channel inhibitors” (AMGEN INC., priority 2013, dated 2015)

Amino acid sequences for entries named in this document (tags omitted).
UniProt Q15858, whole entry: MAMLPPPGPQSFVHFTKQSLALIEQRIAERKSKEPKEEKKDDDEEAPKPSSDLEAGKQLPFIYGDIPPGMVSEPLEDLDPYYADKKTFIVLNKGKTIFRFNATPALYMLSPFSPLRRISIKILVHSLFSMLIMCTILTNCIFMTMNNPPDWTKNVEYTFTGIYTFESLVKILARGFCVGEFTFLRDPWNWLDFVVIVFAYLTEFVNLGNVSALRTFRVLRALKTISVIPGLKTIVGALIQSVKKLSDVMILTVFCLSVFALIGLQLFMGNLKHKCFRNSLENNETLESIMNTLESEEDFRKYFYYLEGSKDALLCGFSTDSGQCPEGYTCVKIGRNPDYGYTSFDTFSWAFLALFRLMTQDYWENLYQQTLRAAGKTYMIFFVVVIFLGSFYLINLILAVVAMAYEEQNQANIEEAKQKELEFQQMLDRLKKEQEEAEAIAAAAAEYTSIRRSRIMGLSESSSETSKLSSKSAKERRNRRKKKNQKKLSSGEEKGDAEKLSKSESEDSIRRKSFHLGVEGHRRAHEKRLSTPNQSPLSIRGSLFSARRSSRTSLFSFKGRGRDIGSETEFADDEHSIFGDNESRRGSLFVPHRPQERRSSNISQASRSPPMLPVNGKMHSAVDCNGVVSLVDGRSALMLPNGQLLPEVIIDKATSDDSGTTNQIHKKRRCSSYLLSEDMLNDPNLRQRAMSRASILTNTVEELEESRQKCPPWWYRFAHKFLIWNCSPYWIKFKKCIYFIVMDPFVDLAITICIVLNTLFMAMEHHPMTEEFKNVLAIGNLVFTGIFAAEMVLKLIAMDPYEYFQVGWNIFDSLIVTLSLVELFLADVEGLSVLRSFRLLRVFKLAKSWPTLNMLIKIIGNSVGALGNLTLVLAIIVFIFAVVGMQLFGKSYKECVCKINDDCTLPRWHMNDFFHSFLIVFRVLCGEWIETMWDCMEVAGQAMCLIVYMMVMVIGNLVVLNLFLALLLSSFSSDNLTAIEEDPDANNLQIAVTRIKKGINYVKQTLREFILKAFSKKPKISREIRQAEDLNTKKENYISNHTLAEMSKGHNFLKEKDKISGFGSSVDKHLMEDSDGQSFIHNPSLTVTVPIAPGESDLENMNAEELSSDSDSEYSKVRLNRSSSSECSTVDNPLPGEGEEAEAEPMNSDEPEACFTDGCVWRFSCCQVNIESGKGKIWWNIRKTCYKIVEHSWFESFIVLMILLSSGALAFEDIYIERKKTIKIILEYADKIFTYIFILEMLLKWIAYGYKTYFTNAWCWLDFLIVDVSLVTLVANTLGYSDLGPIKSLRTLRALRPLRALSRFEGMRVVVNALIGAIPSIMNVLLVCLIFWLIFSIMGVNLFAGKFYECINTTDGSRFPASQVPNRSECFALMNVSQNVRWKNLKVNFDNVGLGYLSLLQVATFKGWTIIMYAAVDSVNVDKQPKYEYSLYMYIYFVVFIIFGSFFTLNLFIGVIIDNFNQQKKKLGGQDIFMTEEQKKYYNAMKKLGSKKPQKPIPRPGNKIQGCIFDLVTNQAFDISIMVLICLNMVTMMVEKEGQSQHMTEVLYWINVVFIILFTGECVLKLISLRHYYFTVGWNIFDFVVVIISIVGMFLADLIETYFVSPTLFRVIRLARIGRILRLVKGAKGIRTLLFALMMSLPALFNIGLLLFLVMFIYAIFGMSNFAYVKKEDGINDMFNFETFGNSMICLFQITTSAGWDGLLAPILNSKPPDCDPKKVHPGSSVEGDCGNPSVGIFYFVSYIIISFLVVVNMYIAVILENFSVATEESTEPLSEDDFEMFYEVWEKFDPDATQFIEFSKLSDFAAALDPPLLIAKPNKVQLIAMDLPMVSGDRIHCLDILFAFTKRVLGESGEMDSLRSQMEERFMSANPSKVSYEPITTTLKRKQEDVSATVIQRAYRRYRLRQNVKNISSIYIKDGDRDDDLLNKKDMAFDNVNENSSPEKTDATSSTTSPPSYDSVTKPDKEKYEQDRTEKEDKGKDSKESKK

target: Nav 1.7 (Homo sapiens (Human), UniProt Q15858); experiment: in-vitro Nav 1.7 PX (IC50); assay type: cell-based; conditions: not given

**Q.** For `COc1cc(-c2cccc(F)c2)c(Cl)cc1-n1c(=O)ccc2cc(S(=O)(=O)Nc3ccncn3)ccc21` (atropisomer, axis not shown; (P)) [Example 465, (P)-1-(2-chloro-3′-fluoro-5-methoxy-[1,1′-biphenyl]-4-yl)-2-oxo-N-(pyrimidin-4-yl)-1,2-dihydroquinoline-6-sulfonamide], which IC50 is on record?
**A.** 17 nM

same assay, conditions: in-vitro Nav 1.7 PX data

**Q.** With `COc1cc(Cl)cc(-c2ccc(OC)c(-n3c(=O)ccc4cc(S(=O)(=O)Nc5ccon5)ccc43)c2)c1` [Example 862, 1-(3′-chloro-4,5′-dimethoxy-3-biphenylyl)-N-3-isoxazolyl-2-oxo-1,2-dihydro-6-quinolinesulfonamide] as the molecule, how does the IC50 read?
**A.** 19 nM

**Q.** How did the IC50 turn out when `COc1ccc(Cl)c(-c2cc(OC)c(-n3c(=O)ccc4cc(S(=O)(=O)Nc5ccon5)ccc43)cc2F)c1` [Example 726, 1-(2′-chloro-2-fluoro-5,5′-dimethoxy-4-biphenylyl)-N-3-isoxazolyl-2-oxo-1,2-dihydro-6-quinolinesulfonamide] was run?
**A.** 19 nM

**Q.** For `COc1cc(-c2ccc(F)c(C)c2)c(F)cc1-n1c(=O)ccc2cc(S(=O)(=O)Nc3cccnn3)ccc21` [Example 941, 1-(2,4′-difluoro-5-methoxy-3′-methyl-4-biphenylyl)-2-oxo-N-3-pyridazinyl-1,2-dihydro-6-quinolinesulfonamide], which IC50 is on record?
**A.** 17 nM

**Q.** For `COc1cc(CC2CCCCC2)c(F)cc1-n1c(=O)ccc2cc(S(=O)(=O)Nc3ccon3)ccc21` [Example 1079, 1-(4-(cyclohexylmethyl)-5-fluoro-2-methoxyphenyl)-N-3-isoxazolyl-2-oxo-1,2-dihydro-6-quinolinesulfonamide], which IC50 is on record?
**A.** 17 nM

**Q.** How did the IC50 turn out when `COc1nc(-c2ccc(Cl)c(C)c2)c(Cl)cc1-n1c(=O)ccc2cc(S(=O)(=O)Nc3ccon3)ccc21` [Example 1084, 1-(5-chloro-6-(4-chloro-3-methylphenyl)-2-methoxy-3-pyridinyl)-N-3-isoxazolyl-2-oxo-1,2-dihydro-6-quinolinesulfonamide] was run?
**A.** 19 nM

**Q.** With `COc1ccc(C)c(-c2cc(OC)c(-n3c(=O)ccc4cc(S(=O)(=O)Nc5ccon5)ccc43)cc2F)c1` [Example 724, 1-(2-fluoro-5,5′-dimethoxy-2′-methyl-4-biphenylyl)-N-3-isoxazolyl-2-oxo-1,2-dihydro-6-quinolinesulfonamide] as the molecule, how does the IC50 read?
**A.** 17 nM

**Q.** How did the IC50 turn out when `COc1cc(-c2ccc(C(F)(F)F)cc2)ccc1-n1c(=O)ccc2cc(S(=O)(=O)Nc3ccon3)ccc21` [Example 1013, N-3-isoxazolyl-1-(3-methoxy-4′-(trifluoromethyl)-4-biphenylyl)-2-oxo-1,2-dihydro-6-quinolinesulfonamide] was run?
**A.** 19 nM

**Q.** With `COc1cc(-c2cc(C#N)ccc2C)c(F)cc1-n1c(=O)ccc2cc(S(=O)(=O)Nc3ccon3)ccc21` [Example 717, 1-(5′-cyano-2-fluoro-5-methoxy-2′-methyl-4-biphenylyl)-N-3-isoxazolyl-2-oxo-1,2-dihydro-6-quinolinesulfonamide] as the molecule, how does the IC50 read?
**A.** 19 nM

**Q.** Which IC50 does the source give for `COc1ccc(-c2cc(F)cc(Cl)c2)cc1-n1c(=O)ccc2cc(S(=O)(=O)Nc3ccon3)ccc21` [Example 849, 1-(3′-chloro-5′-fluoro-4-methoxy-3-biphenylyl)-N-3-isoxazolyl-2-oxo-1,2-dihydro-6-quinolinesulfonamide] here?
**A.** 17 nM

same assay, conditions: in-vitro Nav 1.7 PX data (PatchXpress)

**Q.** `COc1cc(-c2ccc(Cl)cc2F)ccc1-n1c(=O)ccc2cc(S(=O)(=O)Nc3ccon3)ccc21` [Example 1062, 1-(4′-chloro-2′-fluoro-3-methoxy-4-biphenylyl)-N-3-isoxazolyl-2-oxo-1,2-dihydro-6-quinolinesulfonamide] was tested. Which IC50 did it give?
**A.** 19 nM

**Q.** Which IC50 does the source give for `COc1cc(-c2cc(Cl)ccc2C)ccc1-n1c(=O)ccc2cc(S(=O)(=O)Nc3cccnn3)ccc21` [Example 1066, 1-(5′-chloro-3-methoxy-2′-methyl-4-biphenylyl)-2-oxo-N-3-pyridazinyl-1,2-dihydro-6-quinolinesulfonamide] here?
**A.** 19 nM

**Q.** `COc1ccc(Cl)cc1-c1ccc(-n2c(=O)ccc3cc(S(=O)(=O)Nc4ccon4)ccc32)c(OC)c1` [Example 1035, 1-(5′-chloro-2′,3-dimethoxy-4-biphenylyl)-N-3-isoxazolyl-2-oxo-1,2-dihydro-6-quinolinesulfonamide] was tested. Which IC50 did it give?
**A.** 19 nM

same assay, conditions: in-vitro Nav 1.7 PX data, Table 4

**Q.** `COc1cc(-c2cc(F)c(F)c(F)c2)c(F)cc1-n1c(=O)ccc2cc(S(=O)(=O)Nc3ccon3)ccc21` (atropisomer, axis not shown; (P)) [Example 1164, (P)—N-3-isoxazolyl-2-oxo-1-(2,3′,4′,5′-tetrafluoro-5-methoxy-4-biphenylyl)-1,2-dihydro-6-quinolinesulfonamide] was tested. Which IC50 did it give?
**A.** 19 nM

same assay, conditions: in-vitro PatchXpress (PX)

**Q.** Which IC50 does the source give for `COc1cc(-c2ccc(C)c(F)c2)c(F)cc1-n1c(=O)ccc2cc(S(=O)(=O)Nc3ccon3)ccc21` (atropisomer, axis not shown; (P)) [Example 510, (P)-1-(2,3′-difluoro-5-methoxy-4′-methyl-4-biphenylyl)-N-3-isoxazolyl-2-oxo-1,2-dihydro-6-quinolinesulfonamide] here?
**A.** 17 nM
